The chains behind the UniProt entries cited, without tags or fusion partners. Residues count along the entry.
UniProt Q6P988, 81-451 C330S limits assumed: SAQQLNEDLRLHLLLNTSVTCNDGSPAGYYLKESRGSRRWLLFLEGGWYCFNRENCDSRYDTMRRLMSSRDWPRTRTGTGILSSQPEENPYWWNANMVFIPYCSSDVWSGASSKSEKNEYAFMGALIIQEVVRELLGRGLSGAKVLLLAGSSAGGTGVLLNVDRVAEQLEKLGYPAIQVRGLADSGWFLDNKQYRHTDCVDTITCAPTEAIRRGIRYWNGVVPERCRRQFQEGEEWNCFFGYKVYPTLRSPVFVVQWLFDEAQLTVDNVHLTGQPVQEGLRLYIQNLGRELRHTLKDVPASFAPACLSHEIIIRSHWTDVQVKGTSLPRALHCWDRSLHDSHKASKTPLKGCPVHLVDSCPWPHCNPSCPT

According to article PMC6961116, “Scaffold-hopping identifies furano[2,3-d]pyrimidine amides as potent Notum inhibitors” (Bioorganic & Medicinal Chemistry Letters, 2020):

These molecules were tested against Notum(81–451 Cys330Ser) (Homo sapiens, UniProt Q6P988, C330S) (assay: Notum biochemical OPTS assay (carboxylesterase activity)). Conditions: read-out: Notum IC50; OPTS substrate, 1 h incubation; geometric mean ± s.d.

IC50 [nM] | Compound
61 | Cc1sc2ncnc(SCC(=O)N3CN(C)C(=O)C3C)c2c1Cl (stereo not drawn)
33 | CC(=O)N1CCN(C(=O)CSc2ncnc3sc(C)c(Cl)c23)CC1
1900 | Cc1sc2ncnc(SCC(=O)N3CCOCC3(C)C)c2c1Cl
7.8 | Cc1sc2ncnc(SCC(=O)N3CCc4[nH]cnc4C3)c2c1Cl
290 | Cc1sc2ncnc(SCC(=O)N3CCN4C(=O)CCC4C3)c2c1Cl (stereo not drawn)
22 | Cc1sc2ncnc(SCC(=O)N3CCOC[C@H]3C)c2c1Cl
3.2 | Cc1sc2ncnc(SCC(=O)N3Cc4cn[nH]c4C3)c2c1Cl
35 | Cc1sc2ncnc(SCC(=O)N3CCn4c(nnc4C(C)C)C3)c2c1Cl
62 | Cc1sc2ncnc(SCC(=O)N3CC4(CC(=O)N(C)C4)C3)c2c1Cl
106 | Cc1sc2ncnc(SCC(=O)N3CCN(C)CC3)c2c1Cl
20 | Cc1sc2ncnc(SCC(=O)N3CC4(COC4)C3)c2c1Cl
33 | Cc1sc2ncnc(SCC(=O)N3CCNC(=O)CC3)c2c1Cl
20 | Cc1sc2ncnc(SCC(=O)N3CCc4ncccc4C3)c2c1Cl
21 | Cc1sc2ncnc(SCC(=O)N3CCc4nocc4C3)c2c1Cl
25 | Cc1sc2ncnc(SCC(=O)N3CCOC[C@@H]3C)c2c1Cl
1.7 | Cc1sc2ncnc(SCC(=O)N3CC(F)(F)C3)c2c1Cl
88 | Cc1sc2ncnc(SCC(=O)N3CC4(CCOCC4)C3)c2c1Cl
26 | Cc1sc2ncnc(SCC(=O)N3CCCNC(=O)C3)c2c1Cl
17 | Cc1sc2ncnc(SCC(=O)N3CC4(CNC(=O)C4)C3)c2c1Cl
15 | Cc1sc2ncnc(SCC(=O)N3CCN(CC(F)(F)F)C(=O)C3)c2c1Cl
2.7 | Cc1sc2ncnc(SCC(=O)N3CC(C#N)C3)c2c1Cl
18 | Cc1sc2ncnc(SCC(=O)N3CC4COCC4C3)c2c1Cl (stereo not drawn)
44 | Cc1sc2ncnc(SCC(=O)N3CCN(C(C)C)C(=O)C3)c2c1Cl
24 | Cc1sc2ncnc(SCC(=O)N3CCn4nc(C(F)F)nc4C3)c2c1Cl
24 | Cc1sc2ncnc(SCC(=O)N3CC4CC(C3)O4)c2c1Cl

What follows are molecules tested on MDCK-MDR1 monolayer (assay: not given). Conditions: not given.

efflux ratio | Compound
88 | Cc1sc2ncnc(SCC(=O)N3CCn4c(nnc4C(C)C)C3)c2c1Cl
24 | Cc1sc2ncnc(SCC(=O)N3CC4(CC(=O)N(C)C4)C3)c2c1Cl
65 | Cc1sc2ncnc(SCC(=O)N3CC4(CNC(=O)C4)C3)c2c1Cl
2.6 | Cc1sc2ncnc(SCC(=O)N3CCN(CC(F)(F)F)C(=O)C3)c2c1Cl
13 | Cc1sc2ncnc(SCC(=O)N3CCn4nc(C(F)F)nc4C3)c2c1Cl
